Legend:
catalepsy = assay: Catalepsy bar test; conditions: for catalepsy AED50 (adverse effect dose), bar test: rats, ip
[1] = tested on: apomorphine (APO)-induced climbing behavior; conditions: result in words

Fc1ccc(CCCCN2CCN(c3ccccn3)CC2)cc1 [SYA16263]
catalepsy at 6×ED50 (FIG. 10B) (catalepsy; 6×ED50 values, result in words): no catalepsy | catalepsy AED50 (adverse effect dose), bar test (catalepsy): > 75 mg/kg | antipsychotic activity in animal models of schizophrenia (FIG. 10A) [1]: dose-dependent antipsychotic activity

Fc1ccc(OCCCN2CCN(c3ccccn3)CC2)cc1 [SYA16264]
catalepsy AED50 (adverse effect dose), bar test (catalepsy): > 83.5 mg/kg

Reference: patent US11129831B2 (dated 2021)
